This passage reports EC50 results from patent US10144715B2, “Piperazine derivatives as liver X receptor modulators” (priority 2014, dated 2018).

Chains of the proteins cited; added tags and fusions are not shown. Residues count along the entry.
UniProt Q13133, 209-447: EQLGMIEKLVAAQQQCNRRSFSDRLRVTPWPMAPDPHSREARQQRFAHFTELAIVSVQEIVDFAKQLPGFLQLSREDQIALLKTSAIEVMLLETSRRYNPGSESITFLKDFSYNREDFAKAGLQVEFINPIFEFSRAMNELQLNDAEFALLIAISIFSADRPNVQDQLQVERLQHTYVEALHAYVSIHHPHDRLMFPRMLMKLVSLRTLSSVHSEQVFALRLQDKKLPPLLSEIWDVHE

Each structure is given as a SMILES string. pEC50: −log10 of the molar value.

The experiment deals with Gal4 DNA binding domain fused to the LBD of LXRα in HEK293 cells (Homo sapiens (Human), UniProt Q13133). The experiment in a line: LXR luciferase transcriptional reporter gene assay, agonist mode, LXRα. To be noted: read-out: Cell LXRα EC50. The class given is cell-based. A general note: In a reporter assay the amount or activity of a reporter protein is the signal.

For orientation: pEC50 means the EC50 on a negative log10 scale, so that one unit is a factor of ten. With `CS(=O)(=O)c1cccc(N2CCN(Cc3ccc(C(F)(F)F)o3)[C@H](c3ccccc3)C2)c1` [46-65, (R)-4-(3-(methylsulfonyl)phenyl)-2-phenyl-1-((5-(trifluoromethyl)furan-2-yl)methyl)piperazine], the pEC50 is below 4.70.
